{"source": "patent US7781417B2", "about": "“Cyclodextrin dimers and derivatives thereof, methods for preparing them and their use, in particular, for the solubilizing pharmacologically active substances” (Centre National de la Recherche Scientifique, priority 2003, dated 2010)", "origin": "cited, not measured here", "details": "WO 95/19994; cited from earlier work"}
{"substance": "6^I-S-α-maltosyl-6^I-thiocyclomaltoheptaose", "values": [{"measurement": "solubility in water of Taxotere on adding the cyclodextrin to its aqueous suspension", "result": 6500, "unit": "µg/mL"}]}
